Assay results published in patent publication US11198699B2 (ALIGOS THERAPEUTICS, INC., priority 2019, dated 2021).

Amino acid sequences for entries named in this document (tags omitted).
UniProt O14744, whole entry: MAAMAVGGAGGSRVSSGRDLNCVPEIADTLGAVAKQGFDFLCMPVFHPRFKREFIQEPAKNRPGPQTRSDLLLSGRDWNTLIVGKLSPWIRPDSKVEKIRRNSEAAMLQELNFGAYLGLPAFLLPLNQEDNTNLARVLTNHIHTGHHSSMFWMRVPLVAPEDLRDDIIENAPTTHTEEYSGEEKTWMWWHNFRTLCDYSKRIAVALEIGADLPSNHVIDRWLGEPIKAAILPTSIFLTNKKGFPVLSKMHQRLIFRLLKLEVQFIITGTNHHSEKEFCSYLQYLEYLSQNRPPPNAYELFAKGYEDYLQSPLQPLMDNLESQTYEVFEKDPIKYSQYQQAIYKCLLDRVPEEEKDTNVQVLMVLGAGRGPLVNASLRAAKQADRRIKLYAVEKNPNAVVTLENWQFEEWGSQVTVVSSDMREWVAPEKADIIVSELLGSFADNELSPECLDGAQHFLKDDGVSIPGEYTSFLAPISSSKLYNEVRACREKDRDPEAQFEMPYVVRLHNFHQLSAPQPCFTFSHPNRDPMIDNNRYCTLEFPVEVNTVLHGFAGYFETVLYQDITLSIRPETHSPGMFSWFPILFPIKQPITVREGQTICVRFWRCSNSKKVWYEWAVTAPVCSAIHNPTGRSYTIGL
UniProt Q9BQA1, whole entry partner: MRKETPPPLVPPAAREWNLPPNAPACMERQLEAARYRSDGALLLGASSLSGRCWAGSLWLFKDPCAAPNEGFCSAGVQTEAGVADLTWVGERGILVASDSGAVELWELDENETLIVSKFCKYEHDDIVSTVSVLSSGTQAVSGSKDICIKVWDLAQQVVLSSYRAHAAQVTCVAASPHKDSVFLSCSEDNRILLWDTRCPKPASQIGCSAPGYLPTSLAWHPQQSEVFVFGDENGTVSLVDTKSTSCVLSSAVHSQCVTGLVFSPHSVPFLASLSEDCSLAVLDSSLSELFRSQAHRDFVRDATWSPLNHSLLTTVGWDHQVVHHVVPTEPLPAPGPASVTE

Columns and labels:
[1] = tested on: A549 lung carcinoma cells; experiment: Cell proliferation assay, A549 (CellTiter-Glo, 7 days); details: read-out: EC50 A549; A549, 7 days, CellTiter-Glo 2.0
Method: (§1) HepG2 hepatoma cells (ATCC, HB-8065) were maintained in DMEM with high glucose (Lonza, 12-914F) supplemented with 10% fetal bovine serum (FBS; Biowest, S181B-500) and 2 mM L-glutamine (Biowest, X0551-100) at 37° C. and 5% CO2. A549 lung carcinoma cells (ATCC, CCL-185) were maintained in F-12K medium (ThermoFisher 21127030) supplemented with 10% FBS at 37° C. and 5% CO2. Exponentially growing HepG2 or A549 were plated in white, clear-bottom 96-well plates (Corning, 3903) at a cell density of 2000 (HepG2) or 350 (A549) cells per well in 199 μL of HepG2 medium. Next, 1 μL of a 5-fold 9-point dilution series of test compound in DMSO was added to the different wells. Cells were incubated at 37° C. 5% CO2 for 7 days. Cell viability was assessed on day 7 with the CellTiter-Glo 2.0 Cell Viability assay kit (Promega, G9243) to quantify the intracellular amounts of ATP: first, 100 μL of cell culture medium was removed from each well, next 100 μL of CellTiter-Glo® 2.0 Reagent was added and plates were shaken for 2 minutes on an orbital shaker. After 10 minutes stabilization at room temperature, read-out was performed on a ThermoFisher VarioSkan Lux plate reader. Counts were normalized to DMSO control (0% inhibition) and the cytotoxic control (100% inhibition) and EC50 values were determined in GraphPad Prism 8 using the [Agonist] vs. response—Variable slope (four parameters) function. […]

[2] = molecular target: PRMT5/MEP50 (Homo sapiens (Human), UniProt O14744); experiment: PRMT5/MEP50 enzyme inhibition assay, Assay 2 (384-well, MALDI mass spectrometry, histone H4 1-21 peptide); details: read-out: Assay 2 IC50; 1 μM SAM, 0.1 μM histone H4 1-21 peptide, 18-hour incubation at rt
Method: Compounds were tested for inhibition of methyltransferase activity in 384-well plate assay format using mass spectrometry technology. In this enzyme inhibition assay, compounds were tested in a 11-dose IC50 mode with 3-serial dilution, in duplicate, starting at 1, 10, or 100 μM. Reactions were carried out at 1 μM SAM and 0.1 μM histone H4 1-21 peptide as substrates for methyl transfer. Following an 18-hour incubation at rt, the reaction was stopped with 0.5% formic acid. Products of the reaction were captured while unreacted substrates were washed away, prior to MALDI mass spectrometry detection and analysis. Percent enzyme activity was calculated based on no inhibitor DMSO control as 100% activity. EC50 values were determined in GraphPad Prism 8 using the [inhibitor] vs. response—Variable slope (four parameters) function.
Compounds of Formula (I) show activity in this assay. A value of ‘A’ in the table below indicates an IC50 of <1 nM, a value of ‘B’ indicates an IC50≥1 nM to ≤100 nM, and a value of ‘C’ indicates an IC50 value of >100 nM.

[3] = tested on: HepG2 hepatoma cells; experiment: Cell proliferation assay, HepG2 (CellTiter-Glo, 7 days); details: read-out: EC50 HepG2; HepG2, 7 days, CellTiter-Glo 2.0
Method: as §1

Row | Compound | EC50 [1] [µM] | IC50 [2] [µM] | EC50 [3] [µM]
1 | CCCCCOC(=O)Nc1ccc2ccc(CC[C@@]3(C)C[C@@H](c4ccc5c(N)ncnn45)[C@H](O)[C@@H]3O)cc2n1 | 0.02 to 0.1 | > 0.1 | 0.02 to 0.1
2 | C[C@]1(CCc2ccc3cc(Br)c(N)nc3c2)C[C@@H](n2ccc3c(N)ncc(F)c32)[C@H](O)[C@@H]1O | < 0.02 |  | < 0.02
3 | C[C@]1(CCc2ccc3cc(Br)c(N)nc3c2)C[C@@H](c2ccc3c(N)ncnn23)[C@H](O)[C@@H]1O |  | < 0.001 | 
